# Where “and” joins values, the source holds several entries; their conditions need not be identical. Equal entries are not always repeated. This is a selection; strong and weak results do not stand in their true shares. Results filed as inconclusive are left out. Where a structure was tested more than once in an assay, its records may differ in their call. Calls of active or inactive are those of the source. The call rests on the fitted dose curve; in most records, active means well fitted inhibition curve with a large enough effect in the signal ratio in the repeat runs, with a control signal flat; inconclusive means weak or mixed curves, or effect the other way; inactive means flat fitted curve, though single readings scatter; the % refers to the signal ratio.
# Chains of the proteins cited; added tags and fusions are not shown.
# UniProt P14416, whole entry, looked up: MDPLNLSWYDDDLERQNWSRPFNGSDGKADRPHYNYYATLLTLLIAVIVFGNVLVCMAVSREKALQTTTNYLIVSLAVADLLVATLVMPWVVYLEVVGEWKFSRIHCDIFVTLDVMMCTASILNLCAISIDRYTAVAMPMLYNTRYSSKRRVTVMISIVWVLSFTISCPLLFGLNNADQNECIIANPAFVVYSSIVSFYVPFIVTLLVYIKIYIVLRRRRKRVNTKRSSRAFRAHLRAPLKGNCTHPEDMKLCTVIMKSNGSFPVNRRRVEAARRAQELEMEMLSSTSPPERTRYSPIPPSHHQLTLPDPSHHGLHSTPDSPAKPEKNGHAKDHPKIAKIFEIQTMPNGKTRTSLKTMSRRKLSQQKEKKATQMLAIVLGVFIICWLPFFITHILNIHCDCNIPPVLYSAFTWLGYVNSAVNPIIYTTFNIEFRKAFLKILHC
# Target: D(2) dopamine receptor (Homo sapiens) (UniProt P14416)
# Experiment: Dopamine D2 receptor (DRD2) small molecule antagonists, cell-based qHTS assay (AID 1963595)
# Settings: HEK293-DRD2 cAMP HTRF antagonist mode; at 92.4 µM (top of the series) unless noted
# Description: National Center for Advancing Translational Sciences [NCATS]
# Division of Preclinical Innovation [DPI]
# U.S. Environmental Protection Agency [EPA]
# National Institutes of Environmental Health Sciences [NIEHS]
# National Toxicology Program [NTP]
# U.S. Food and Drug Administration [FDA]
# DRD2 is the D2 subtype of the dopamine receptor, which is coupled to Gi subtype of G protein-coupled receptor. This G protein-coupled receptor inhibits adenylyl cyclase activity. The DRD2-HEK293 cell line stably expressing D2 dopamine receptor can be used for screening agonists and antagonists of interactions between D2 and its ligands. The Hek293-DRD2 cAMP assay is based on HTRF technology. It measures changes of cAMP accumulation in response to Gi coupled GPCR activation or inhibition.
# Tox21 Assay Protocol Summary:
# DRD2-Hek293 cells were dispensed at 600 cells/3uL/well in 1536-well white plates using a Multidrop Dispenser. After the assay plates were incubated at a 37 C/5% CO2 incubator for 24 h, 1 uL of Ro20-1724 at final concentration of 0.1 mM was transferred to the assay plate by a Flying Reagent Dispenser. Following Ro20-1724 addition, 23 nL of compound dissolved in DMSO, positive controls or DMSO only was added to the assay plates via Wako pintool station. The assay plates were incubated at room temperature for 10 min. Next, 1 uL of mixture of NKH477 (final concentration at 200 nM) and quinpirole (final concentration at 12 nM) was added into the plates. After the assay plates were incubated at room temperature for an additional 30 min, 2.5 ul/well of cAMP-d2 and 2.5 ul/well of anti-cAMP-cryptate were added respectively into the assay plates using a Flying Reagent Dispenser. The plates were incubated at room temperature for 1 h. The fluorescence intensity in the plates was measured at 340 nm excitation and 665 & 620 nm emission by an Envision plate reader.
# On the % scale 0 is the no-effect control and ±100 the full control effect.
row,SMILES,"activity change, negative = inhibition"
1,COP(=S)(Cl)OC,inactive: 0.103%
2,CCCCO[P+](=O)OCCCC,inactive: 1.93% and inactive: -3.02%
3,CN(C(=O)Cc1cccc2occc12)[C@H]1CC[C@@]2(CCCO2)C[C@@H]1N1CCCC1,inactive: 22%
4,COC(=O)Cl,inactive: -1.3%
5,O=[N+]([O-])c1ccc(S(=O)(=O)O)c([N+](=O)[O-])c1,inactive: 4.83%
6,O=P(Cl)(Cl)c1ccccc1,inactive: 14.8%
7,CCCCC(CC)CO[P+](=O)OCC(CC)CCCC (stereo not drawn),inactive: -3.98%
8,CC(C)OP(=S)(OC(C)C)SCCNS(=O)(=O)c1ccccc1,inactive: 0.0702%
9,O=C(Cl)OCCOC(=O)Cl,inactive: 8.1%
10,NC(=O)Nc1ccc([As](=O)(O)O)cc1,inactive: 0.758% [at 42.5 µM]
11,CN(C(=O)Cc1ccc(Cl)c(Cl)c1)[C@H]1CC[C@@]2(CCCO2)C[C@@H]1N1CCCC1,inactive: 10.5% [at 42.5 µM]
12,CCCCOP(OCCCC)OCCCC,inactive: -2.34%
13,O=[p+]1oc2ccccc2c2ccccc21 (stereo not drawn),inactive: -9.78%
14,O=C(Cl)Oc1ccccc1,inactive: 2.89%
15,CCNC(C)Cc1ccc2c(c1)OCO2 (stereo not drawn),inactive: -1.5%
16,CN(N=O)C(=N)N[N+](=O)[O-],inactive: -0.221%
17,CC(C)CCCCCCCOP(OCCCCCCCC(C)C)Oc1ccccc1,inactive: -16.3%
18,O=[N+]([O-])c1ccc([N+](=O)[O-])cc1,inactive: -12.4%
19,ClP(Cl)c1ccccc1,inactive: 1.41%
20,O=P(Cl)(Oc1ccccc1)Oc1ccccc1,inactive: -0.429%
21,O=[P+](Oc1ccccc1)Oc1ccccc1,inactive: -9.9%
22,CCOC(=O)Cl,inactive: 3.03%
23,CCCCCCCCCCCCCC[P+](CCCCCC)(CCCCCC)CCCCCC,inactive: -3.58%
24,CCOP(=S)(CC)Sc1ccccc1 (stereo not drawn),inactive: 1.79%
25,Cc1cc([N+](=O)[O-])c(O)c([N+](=O)[O-])c1,inactive: -2.3%
26,Cc1cc([N+](=O)[O-])cc([N+](=O)[O-])c1O,inactive: -2.4%
27,CN(C(=O)Cc1ccccc1)[C@H]1CC[C@@]2(CCCO2)C[C@@H]1N1CCCC1,inactive: 3.34% [at 42.5 µM]
28,CCC(C)(OOC(C)(C)C)OOC(C)(C)C,inactive: 3.05% [at 18.9 µM]
